Assay results reported in PubChem BioAssay AID1347430 (National Center for Advancing Translational Sciences (NCATS), 2020).
The entries are a selection whose mix differs from that of the whole data set. Activity calls are given as the source filed them. Calls come from the whole dose curve; as a rule, active = well fitted inhibition curve with a large enough effect; inconclusive = small, poorly fitted or top-dose-only effect; inactive = flat fitted curve, though single readings scatter.

System: Uracil-DNA glycosylase
Experiment: Primary qHTS assay for inhibitors of Activation Induced Cytidine Deaminase (AID): UDG Counterscreen signal; note: nearly all actives have a fitted effect of over 65% in size
Conditions: FRET deamination/UDG coupled assay, UDG read, 4 h; at 115 µM (top of the series)
Excerpt: Assay Provider (PI) Patricia Gearhart Ph.D.
National Institute on Aging
National Institute of Health (NIH), Bethesda, MD
Assay Provider (PI) Rahul Kohli Ph.D.
Perelman School of Medicine
University of Pennsylvania, Philadelphia, PA
Activation-Induced Deaminase (AID) is a cytosine deaminase which converts cytosine into uracil within stretches of ssDNA. The presence of uracil in DNA initiates a cascade of mutagenic DNA repair to introduce point mutations and DNA double strand breaks. Specific targeting of AID to the immunoglobulin heavy chain loci (Igh) promotes mutagenesis in the antibody variable region for somatic hypermutation (SHM) or switch regions leading to class switch recombination (CSR). […]
A FRET based analysis of cytosine deamination, was developed to identify potential inhibitors of AID catalytic activity. This screen has two signal output, Read 1 evaluates the AID inhibition response. The second readout (Read 2) evaluates UDG response and is uses as a counterscreen to exclude false positive inhibitors. […]
9a; Detection; fluorescence (Read 1: AID); EnVision (PerkinElmer) plate reader, 540 excitation and 590 emission filters
9b; Detection; fluorescence (Read 2: UDG); EnVision (PerkinElmer) plate reader, 560 excitation and 665 emission filters […]
9a; Fluorescence signal (column label AID) was read using the EnVision plate reader. […]
% is set by controls: 0 for no effect and ±100 for the full control effect.

Row | Structure (SMILES) | activity change, negative = inhibition
1 | N#[O+].[C-]#N.[C-]#N.[C-]#N.[C-]#N.[C-]#N.[Fe+2].[Na+].[Na+] | inactive: -12.5%
